Experiments:
wildtype CFTR [1] = target: T1, wildtype CFTR (Homo sapiens, UniProt P13569); test: Short-circuit current in primary culture of human bronchial epithelial cells
CFTR [2] = target: T2, CFTR (Homo sapiens, UniProt P13569)
wildtype CFTR [3] = target: T1, wildtype CFTR; test: YFP fluorescence assay of CFTR-mediated I− transport in FRT cells; assay type: cell-based; design: expressed in transfected cells; host or cells: Fischer rat thyroid (FRT) cells, stably transfected, co-expressing YFP-H148Q
Procedure: FIG. 1A is a schematic representation of a screening technique used for detection of CFTR inhibitors. CFTR was maximally stimulated by multiple agonists in stably transfected epithelial cells co-expressing human CFTR and a yellow fluorescent protein (YFP) having Cl^−/I^− sensitive fluorescence. After addition of a test compound, I^− influx was induced by adding an I^− containing solution.
Cells were plated in 96-well black-walled microplates (Corning Costar) at a density of 20,000 cells per well in Coon's modified F12 medium supplemented with 5% fetal calf serum, 2 mM L-glutamine, 100 U/ml penicillin, and 100 μg/ml streptomycin. Assays were done at 48 h after plating at which time cells were just confluent (˜40,000 cells per well).
Assays were done using a customized screening system (Beckman) consisting of a 3-meter robotic arm, CO2 incubator, plate washer, liquid handling workstation, bar code reader, delidding station, and two FluoStar fluorescence plate readers (BMG Labtechnologies, Offenburg, Germany), each equipped with two syringe pumps and HQ500/20X (500±10 nm) excitation and HQ535/30M (535±15 nm) emission filters (Chroma). The robotic system was integrated using SAMI version 3.3 software (Beckman) modified for two plate readers. Custom software was written in VBA (Visual Basic for Applications) to compute baseline-subtracted, normalized fluorescence slopes (giving halide influx rates) from stored data files.
The assay was set-up by loading the incubator (37° C., 90% humidity, 5% CO2) with 40-60 96-well plates containing the FRT cells, and loading a carousel with 96-well plates containing test compounds and disposable plastic pipette tips. To initiate the assay, each well of a 96-well plate was washed 3 times in PBS (300 μl/wash), leaving 50 μl PBS. Ten μl of a CFTR-activating cocktail (5 μM forskolin, 100 μM IBMX, 25 μM apigenin in PBS) was added, and after 5 min one test compound (0.5 μl of 1 mM DMSO solution) was added to each well to give 10 μM final concentration. After 10 min, 96-well plates were transferred to a plate reader for fluorescence assay. Each well was assayed individually for CFTR-mediated I^− transport by recording fluorescence continuously (200 ms per point) for 2 s (baseline) and then for 12 s after rapid (<0.5 s) addition of 160 μL of isosmolar PBS in which 137 mM Cl^− was replaced by I^−.
The primary screening technique used to identify the compounds of the invention was designed to identify inhibitors of CFTR Cl^− conductance by direct CFTR-inhibitor interaction. CFTR was pre-stimulated in CFTR-expressing FRT cells by an activating cocktail containing forskolin, IBMX and apigenin, as shown schematically in FIG. 1A. The activation of CFTR by multiple mechanisms (cAMP elevation, phosphodiesterase inhibition, and direct CFTR binding) allowed identification of inhibitors that blocked the CFTR Cl^− transporting pathway directly rather than more proximal step(s) in a signaling pathway. The FRT cells co-expressed a yellow fluorescent protein-based Cl^−/I^− sensor that provided a quantitative fluorescence read-out of inhibition potency (See, e.g., Jayaraman et al., 2000, J. Biol. Chem. 275:6047-6050; Galietta et al., 2001, Am. J. Physiol. 281:C1734-C1742.). After CFTR pre-stimulation and compound addition, cells were subjected to an inwardly-directed I^− gradient to drive I^− influx and produce decreasing fluorescence. Each assay consisted of recording baseline fluorescence for 2 seconds, followed by 12 seconds of continuous recording of fluorescence after rapid addition of the I^− containing solution. Compounds were tested separately at 10 μM concentration in a 96-well format utilizing a fully-automated high-throughput screening apparatus (see Example 2 below).

The chains behind the UniProt entries cited, without tags or fusion partners.
UniProt P13569, whole entry: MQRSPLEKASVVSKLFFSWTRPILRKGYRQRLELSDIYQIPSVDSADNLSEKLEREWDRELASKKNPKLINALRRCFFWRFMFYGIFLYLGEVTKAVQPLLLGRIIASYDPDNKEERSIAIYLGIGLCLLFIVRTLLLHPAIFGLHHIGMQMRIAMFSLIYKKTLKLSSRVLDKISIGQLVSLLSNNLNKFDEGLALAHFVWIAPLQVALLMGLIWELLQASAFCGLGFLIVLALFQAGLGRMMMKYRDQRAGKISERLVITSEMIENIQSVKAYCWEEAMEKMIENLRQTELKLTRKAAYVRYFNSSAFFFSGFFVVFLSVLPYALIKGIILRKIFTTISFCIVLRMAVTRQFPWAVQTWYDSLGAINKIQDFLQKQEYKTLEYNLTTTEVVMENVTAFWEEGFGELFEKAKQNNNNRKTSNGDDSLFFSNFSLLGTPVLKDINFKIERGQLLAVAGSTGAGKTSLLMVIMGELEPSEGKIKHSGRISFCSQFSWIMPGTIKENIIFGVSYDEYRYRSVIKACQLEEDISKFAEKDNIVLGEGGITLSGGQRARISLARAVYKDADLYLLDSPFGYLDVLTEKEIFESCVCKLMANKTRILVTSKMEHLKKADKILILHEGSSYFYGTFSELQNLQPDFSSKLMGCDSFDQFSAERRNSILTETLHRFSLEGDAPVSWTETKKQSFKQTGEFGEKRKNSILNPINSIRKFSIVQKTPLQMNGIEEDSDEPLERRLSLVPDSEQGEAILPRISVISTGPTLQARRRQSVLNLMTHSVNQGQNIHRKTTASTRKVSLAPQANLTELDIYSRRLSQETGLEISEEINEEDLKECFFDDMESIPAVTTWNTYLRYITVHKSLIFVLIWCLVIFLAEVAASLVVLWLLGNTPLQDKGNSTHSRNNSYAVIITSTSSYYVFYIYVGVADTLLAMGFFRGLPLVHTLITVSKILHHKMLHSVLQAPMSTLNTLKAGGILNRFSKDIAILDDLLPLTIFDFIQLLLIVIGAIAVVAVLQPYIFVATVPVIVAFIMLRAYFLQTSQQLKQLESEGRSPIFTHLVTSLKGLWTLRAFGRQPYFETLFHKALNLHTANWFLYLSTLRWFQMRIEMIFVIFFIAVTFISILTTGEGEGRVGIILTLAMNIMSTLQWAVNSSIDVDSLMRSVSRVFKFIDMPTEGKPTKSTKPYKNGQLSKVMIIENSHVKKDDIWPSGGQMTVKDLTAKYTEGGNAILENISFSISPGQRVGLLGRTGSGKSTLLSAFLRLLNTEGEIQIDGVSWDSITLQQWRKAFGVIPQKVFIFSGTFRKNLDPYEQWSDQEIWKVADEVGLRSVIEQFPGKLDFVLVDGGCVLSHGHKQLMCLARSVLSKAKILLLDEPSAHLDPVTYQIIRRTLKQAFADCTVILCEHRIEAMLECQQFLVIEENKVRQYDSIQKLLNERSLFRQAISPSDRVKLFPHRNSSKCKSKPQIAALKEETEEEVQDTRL

CFTR [4] = target: T2, CFTR; remark: listed apart in the source

## 3-[(3-trifluoromethyl)phenyl]-5-[(4-carboxyphenyl)methylene]-2-thioxo-4-thiazolidinone [CFTRinh-172]
Wildtype CFTR [1]; added from the basolateral side
  effect on short-circuit current, basolateral side: also inhibited short-circuit current
Wildtype CFTR [1]; amiloride, maximal activation by CPT-cAMP, apical application
  effect on short-circuit current, apical side: inhibited short-circuit current strongly
CFTR [2]; dose-inhibition of short-circuit current
  Hill coefficient: ~1
CFTR [2]; read-out: Kd, inhibition of short-circuit current, CFTR stimulated by 100 μM CPT-cAMP, apical addition
  Kd: ~300 nM
Wildtype CFTR [3]; 5 μM inhibitor, agonists 50 μM (genistein, CPT-cAMP, CPX, 8-MPO, UCCF-029, UCCF-853)
  inhibition of CFTR activation by different agonists: effectively inhibited CFTR activation by multiple types of agonists
Wildtype CFTR [3]; after addition of 2 μM
  t1/2 of inhibition: 4 min
  time to complete inhibition: ~10 min
Wildtype CFTR [3]; dose-inhibition, FIG. 2A
  concentrations at which significant CFTR inhibition was seen: 0.3 to 0.6 µM
Wildtype CFTR [3]; relative to CFTRinh-172 = 1.0
  relative potency (CFTR inhibitory activity): 1.0
Wildtype CFTR [3]; washout of 1 μM
  t1/2 of inhibition reversal after washout: ~5 min
CFTR [4]; 0.2 μM, forskolin stimulation
  inhibition of membrane current: ~50%
CFTR [4]; 2 μM, 5 μM forskolin stimulation
  effect on whole-cell membrane current: rapid reduction in current at all membrane potentials
